Results published in patent publication US20100113332A1, “METHOD OF TREATING AN INFLAMMATORY DISEASE BY DOUBLE STRANDED RIBONUCLEIC ACID” (NASTECH PHARMACEUTICAL COMPANY INC., priority 2004, published 2010).

System: TNF-α mRNA
Assay: TNF-α knockdown in human monocytes (branch DNA);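 note: LPS-activated human CD14+ monocytes, TNF-α mRNA read by branched DNA assay and normalized to cypB mRNA, knockdown compared with random-sequence Qneg siRNA as negative control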
[1] = siRNA 4 nM complexed with 1.6 uM PN73
[2] = siRNA 4 nM complexed with 1.6 uM PN509

Sequence	KD (%) TNF-α [1]	KD (%) TNF-α [2]
AAGGGACCUCUCUCUAAUCAG [LC11]	7.89%	25.65%
AAGUCAGAUCAUCUUCUCGAA [LC10]	13.52%	25.62%
